Tests used:
[1] = test system: Tyrosine-protein kinase ABL1 (Homo sapiens), P00519 [H396P]; assay: Inhibition of human full length Abl (ABL1) H396P mutant expressed in 293H cells assessed as remaining activity at 0.1 uM by NanoBRET assay relative to control; type: cell-based; details: HEK293-H
[2] = molecular target: ALK tyrosine kinase receptor (Homo sapiens) (UniProt Q9UM73); assay: Inhibition of human recombinant ALK using KKKSPGEYVNIEF as substrate assessed as remaining activity in presence of [33P]-ATP measured at 0.1 uM after 40 mins by radiometric scintillation counting analysis relative to control
[3] = molecular target: Aurora kinase A (Homo sapiens) (UniProt O14965); assay: Inhibition of human Aurora-A assessed as remaining activity at 0.1 uM by Eurofins kinase assay relative to control
[4] = molecular target: Serine/threonine-protein kinase B-raf (Homo sapiens) (UniProt P15056); assay: Inhibition of human B-Raf assessed as remaining activity at 0.1 uM by Eurofins kinase assay relative to control
[5] = molecular target: T1, Cyclin-dependent kinase 1/cyclin B1 (Homo sapiens) (UniProt P06493+P14635); assay: Inhibition of human CDK1/cyclinB assessed as remaining activity at 0.1 uM by Eurofins kinase assay relative to control; type: protein-complex assay
[6] = molecular target: Serine/threonine-protein kinase Chk2 (Homo sapiens) (UniProt O96017); assay: Inhibition of human CHK2 assessed as remaining activity at 0.1 uM by Eurofins kinase assay relative to control
[7] = molecular target: Epidermal growth factor receptor (Homo sapiens) (UniProt P00533); assay: Inhibition of human EGFR assessed as remaining activity at 0.1 uM by Eurofins kinase assay relative to control
[8] = molecular target: Fibroblast growth factor receptor 1 (Homo sapiens) (UniProt P11362); assay: Inhibition of human FGFR1 assessed as remaining activity at 0.1 uM by Eurofins kinase assay relative to control
[9] = molecular target: Vascular endothelial growth factor receptor 1 (Homo sapiens) (UniProt P17948); assay: Inhibition of human Flt1 assessed as remaining activity at 0.1 uM by Eurofins kinase assay relative to control
[10] = molecular target: Glycogen synthase kinase-3 alpha (Homo sapiens) (UniProt P49840); assay: Inhibition of human GSK3a assessed as remaining activity at 0.1 uM by Eurofins kinase assay relative to control
[11] = molecular target: LIM domain kinase 1 (Homo sapiens) (UniProt P53667); assay: Inhibition of human LIMK1 assessed as remaining activity at 0.1 uM by Eurofins kinase assay relative to control
[12] = molecular target: Dual specificity mitogen-activated protein kinase kinase 1 (Homo sapiens) (UniProt Q02750); assay: Inhibition of human MEK1 assessed as remaining activity at 0.1 uM by Eurofins kinase assay relative to control
[13] = molecular target: Hepatocyte growth factor receptor (Homo sapiens) (UniProt P08581); assay: Inhibition of human Met assessed as remaining activity at 0.1 uM by Eurofins kinase assay relative to control
[14] = molecular target: Serine/threonine-protein kinase mTOR (Homo sapiens) (UniProt P42345); assay: Inhibition of human mTOR assessed as remaining activity at 0.1 uM by Eurofins kinase assay relative to control
[15] = molecular target: Serine/threonine-protein kinase Nek1 (Homo sapiens) (UniProt Q96PY6); assay: Inhibition of human NEK1 assessed as remaining activity at 0.1 uM by Eurofins kinase assay relative to control
[16] = molecular target: Serine/threonine-protein kinase pim-1 (Homo sapiens) (UniProt P11309); assay: Inhibition of human Pim-1 assessed as remaining activity at 0.1 uM by Eurofins kinase assay relative to control
[17] = molecular target: Serine/threonine-protein kinase PLK1 (Homo sapiens) (UniProt P53350); assay: Inhibition of human Plk1 assessed as remaining activity at 0.1 uM by Eurofins kinase assay relative to control
[18] = molecular target: Proto-oncogene tyrosine-protein kinase receptor Ret (Homo sapiens) (UniProt P07949); assay: Inhibition of human Ret assessed as remaining activity at 0.1 uM by Eurofins kinase assay relative to control
[19] = molecular target: Receptor-interacting serine/threonine-protein kinase 1 (Homo sapiens) (UniProt Q13546); assay: Inhibition of human RIPK1 assessed as remaining activity at 0.1 uM by Eurofins kinase assay relative to control
[20] = molecular target: Receptor-interacting serine/threonine-protein kinase 2 (Homo sapiens) (UniProt O43353); assay: Inhibition of human RIPK2 assessed as remaining activity at 0.1 uM by Eurofins kinase assay relative to control
[21] = molecular target: Macrophage-stimulating protein receptor (Homo sapiens) (UniProt Q04912); assay: Inhibition of human Ron assessed as remaining activity at 0.1 uM by Eurofins kinase assay relative to control
[22] = molecular target: Proto-oncogene tyrosine-protein kinase ROS (Homo sapiens) (UniProt P08922); assay: Inhibition of human Ros assessed as remaining activity at 0.1 uM by Eurofins kinase assay relative to control
[23] = molecular target: Proto-oncogene tyrosine-protein kinase Src (Homo sapiens) (UniProt P12931); assay: Inhibition of human Src (1-530) assessed as remaining activity at 0.1 uM by Eurofins kinase assay relative to control
[24] = molecular target: Serine/threonine-protein kinase 25 (Homo sapiens) (UniProt O00506); assay: Inhibition of human STK25 assessed as remaining activity at 0.1 uM by Eurofins kinase assay relative to control
[25] = molecular target: Tyrosine-protein kinase SYK (Homo sapiens) (UniProt P43405); assay: Inhibition of human Syk assessed as remaining activity at 0.1 uM by Eurofins kinase assay relative to control
[26] = molecular target: Serine/threonine-protein kinase TBK1 (Homo sapiens) (UniProt Q9UHD2); assay: Inhibition of human TBK1 assessed as remaining activity at 0.1 uM by Eurofins kinase assay relative to control
[27] = molecular target: Angiopoietin-1 receptor (Homo sapiens) (UniProt Q02763); assay: Inhibition of human Tie2 assessed as remaining activity at 0.1 uM by Eurofins kinase assay relative to control
[28] = molecular target: Non-receptor tyrosine-protein kinase TYK2 (Homo sapiens) (UniProt P29597); assay: Inhibition of human TYK2 assessed as remaining activity at 0.1 uM by Eurofins kinase assay relative to control
[29] = molecular target: Wee1-like protein kinase (Homo sapiens) (UniProt P30291); assay: Inhibition of human Wee1 assessed as remaining activity at 0.1 uM by Eurofins kinase assay relative to control
[30] = molecular target: Mitogen-activated protein kinase kinase kinase 20 (Homo sapiens) (UniProt Q9NYL2); assay: Inhibition of human ZAK assessed as remaining activity at 0.1 uM by Eurofins kinase assay relative to control
[31] = test system: Tyrosine-protein kinase ABL1 (Homo sapiens), P00519 [H396P]; assay: Inhibition of human full length Abl (ABL1) H396P mutant expressed in 293H cells assessed as remaining activity at 1 uM by NanoBRET assay relative to control; type: cell-based; details: HEK293-H
[32] = molecular target: ALK tyrosine kinase receptor (Homo sapiens) (UniProt Q9UM73); assay: Inhibition of human recombinant ALK using KKKSPGEYVNIEF as substrate assessed as remaining activity in presence of [33P]-ATP measured at 1 uM after 40 mins by radiometric scintillation counting analysis relative to control
[33] = molecular target: Aurora kinase A (Homo sapiens) (UniProt O14965); assay: Inhibition of human Aurora-A assessed as remaining activity at 1 uM by Eurofins kinase assay relative to control
[34] = molecular target: Tyrosine-protein kinase BTK (Homo sapiens) (UniProt Q06187); assay: Inhibition of human BTK assessed as remaining activity at 1 uM by Eurofins kinase assay relative to control
[35] = molecular target: Serine/threonine-protein kinase B-raf (Homo sapiens) (UniProt P15056); assay: Inhibition of human B-Raf assessed as remaining activity at 1 uM by Eurofins kinase assay relative to control
[36] = molecular target: T1, Cyclin-dependent kinase 1/cyclin B1 (Homo sapiens); assay: Inhibition of human CDK1/cyclinB assessed as remaining activity at 1 uM by Eurofins kinase assay relative to control; type: protein-complex assay
[37] = molecular target: Serine/threonine-protein kinase Chk2 (Homo sapiens) (UniProt O96017); assay: Inhibition of human CHK2 assessed as remaining activity at 1 uM by Eurofins kinase assay relative to control
[38] = molecular target: Mast/stem cell growth factor receptor Kit (Homo sapiens) (UniProt P10721); assay: Inhibition of human cKit assessed as remaining activity at 1 uM by Eurofins kinase assay relative to control
[39] = molecular target: Epidermal growth factor receptor (Homo sapiens) (UniProt P00533); assay: Inhibition of human EGFR assessed as remaining activity at 1 uM by Eurofins kinase assay relative to control
[40] = molecular target: Vascular endothelial growth factor receptor 1 (Homo sapiens) (UniProt P17948); assay: Inhibition of human Flt1 assessed as remaining activity at 1 uM by Eurofins kinase assay relative to control
[41] = test system: Receptor-type tyrosine-protein kinase FLT3 (Homo sapiens), P36888 [D835Y]; assay: Inhibition of human Flt3 (D835Y) mutant assessed as remaining activity at 1 uM by Eurofins kinase assay relative to control
[42] = molecular target: Glycogen synthase kinase-3 alpha (Homo sapiens) (UniProt P49840); assay: Inhibition of human GSK3a assessed as remaining activity at 1 uM by Eurofins kinase assay relative to control
[43] = molecular target: Tyrosine-protein kinase JAK1 (Homo sapiens) (UniProt P23458); assay: Inhibition of human JAK1 assessed as remaining activity at 1 uM by Eurofins kinase assay relative to control
[44] = molecular target: LIM domain kinase 1 (Homo sapiens) (UniProt P53667); assay: Inhibition of human LIMK1 assessed as remaining activity at 1 uM by Eurofins kinase assay relative to control
[45] = molecular target: Dual specificity mitogen-activated protein kinase kinase 1 (Homo sapiens) (UniProt Q02750); assay: Inhibition of human MEK1 assessed as remaining activity at 1 uM by Eurofins kinase assay relative to control
[46] = molecular target: Hepatocyte growth factor receptor (Homo sapiens) (UniProt P08581); assay: Inhibition of human Met assessed as remaining activity at 1 uM by Eurofins kinase assay relative to control
[47] = molecular target: Serine/threonine-protein kinase mTOR (Homo sapiens) (UniProt P42345); assay: Inhibition of human mTOR assessed as remaining activity at 1 uM by Eurofins kinase assay relative to control
[48] = molecular target: Serine/threonine-protein kinase Nek1 (Homo sapiens) (UniProt Q96PY6); assay: Inhibition of human NEK1 assessed as remaining activity at 1 uM by Eurofins kinase assay relative to control
[49] = molecular target: Serine/threonine-protein kinase pim-1 (Homo sapiens) (UniProt P11309); assay: Inhibition of human Pim-1 assessed as remaining activity at 1 uM by Eurofins kinase assay relative to control
[50] = molecular target: Serine/threonine-protein kinase PLK1 (Homo sapiens) (UniProt P53350); assay: Inhibition of human Plk1 assessed as remaining activity at 1 uM by Eurofins kinase assay relative to control
[51] = molecular target: Proto-oncogene tyrosine-protein kinase receptor Ret (Homo sapiens) (UniProt P07949); assay: Inhibition of human Ret assessed as remaining activity at 1 uM by Eurofins kinase assay relative to control
[52] = molecular target: Receptor-interacting serine/threonine-protein kinase 1 (Homo sapiens) (UniProt Q13546); assay: Inhibition of human RIPK1 assessed as remaining activity at 1 uM by Eurofins kinase assay relative to control
[53] = molecular target: Receptor-interacting serine/threonine-protein kinase 2 (Homo sapiens) (UniProt O43353); assay: Inhibition of human RIPK2 assessed as remaining activity at 1 uM by Eurofins kinase assay relative to control
[54] = molecular target: Macrophage-stimulating protein receptor (Homo sapiens) (UniProt Q04912); assay: Inhibition of human Ron assessed as remaining activity at 1 uM by Eurofins kinase assay relative to control
[55] = molecular target: Proto-oncogene tyrosine-protein kinase ROS (Homo sapiens) (UniProt P08922); assay: Inhibition of human Ros assessed as remaining activity at 1 uM by Eurofins kinase assay relative to control
[56] = molecular target: Proto-oncogene tyrosine-protein kinase Src (Homo sapiens) (UniProt P12931); assay: Inhibition of human Src (1-530) assessed as remaining activity at 1 uM by Eurofins kinase assay relative to control
[57] = molecular target: Serine/threonine-protein kinase 25 (Homo sapiens) (UniProt O00506); assay: Inhibition of human STK25 assessed as remaining activity at 1 uM by Eurofins kinase assay relative to control
[58] = molecular target: Tyrosine-protein kinase SYK (Homo sapiens) (UniProt P43405); assay: Inhibition of human Syk assessed as remaining activity at 1 uM by Eurofins kinase assay relative to control
[59] = molecular target: Serine/threonine-protein kinase TBK1 (Homo sapiens) (UniProt Q9UHD2); assay: Inhibition of human TBK1 assessed as remaining activity at 1 uM by Eurofins kinase assay relative to control
[60] = molecular target: Angiopoietin-1 receptor (Homo sapiens) (UniProt Q02763); assay: Inhibition of human Tie2 assessed as remaining activity at 1 uM by Eurofins kinase assay relative to control
[61] = molecular target: Non-receptor tyrosine-protein kinase TYK2 (Homo sapiens) (UniProt P29597); assay: Inhibition of human TYK2 assessed as remaining activity at 1 uM by Eurofins kinase assay relative to control
[62] = molecular target: Wee1-like protein kinase (Homo sapiens) (UniProt P30291); assay: Inhibition of human Wee1 assessed as remaining activity at 1 uM by Eurofins kinase assay relative to control

The chains behind the UniProt entries cited, without tags or fusion partners. Where a name states a change or a piece, a line headed by the entry shows the natural chain unless it says otherwise.
UniProt O14965: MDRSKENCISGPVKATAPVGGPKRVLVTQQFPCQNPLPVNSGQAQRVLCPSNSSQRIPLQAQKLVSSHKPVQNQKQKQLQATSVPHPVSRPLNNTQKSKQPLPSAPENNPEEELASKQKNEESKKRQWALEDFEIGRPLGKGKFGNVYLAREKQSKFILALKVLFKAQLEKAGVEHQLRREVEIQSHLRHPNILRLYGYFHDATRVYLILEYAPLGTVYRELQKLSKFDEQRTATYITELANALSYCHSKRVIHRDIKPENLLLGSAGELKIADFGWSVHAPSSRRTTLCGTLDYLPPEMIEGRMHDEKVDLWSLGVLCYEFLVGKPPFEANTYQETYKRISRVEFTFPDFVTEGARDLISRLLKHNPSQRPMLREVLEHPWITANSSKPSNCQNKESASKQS
UniProt P15056, whole entry: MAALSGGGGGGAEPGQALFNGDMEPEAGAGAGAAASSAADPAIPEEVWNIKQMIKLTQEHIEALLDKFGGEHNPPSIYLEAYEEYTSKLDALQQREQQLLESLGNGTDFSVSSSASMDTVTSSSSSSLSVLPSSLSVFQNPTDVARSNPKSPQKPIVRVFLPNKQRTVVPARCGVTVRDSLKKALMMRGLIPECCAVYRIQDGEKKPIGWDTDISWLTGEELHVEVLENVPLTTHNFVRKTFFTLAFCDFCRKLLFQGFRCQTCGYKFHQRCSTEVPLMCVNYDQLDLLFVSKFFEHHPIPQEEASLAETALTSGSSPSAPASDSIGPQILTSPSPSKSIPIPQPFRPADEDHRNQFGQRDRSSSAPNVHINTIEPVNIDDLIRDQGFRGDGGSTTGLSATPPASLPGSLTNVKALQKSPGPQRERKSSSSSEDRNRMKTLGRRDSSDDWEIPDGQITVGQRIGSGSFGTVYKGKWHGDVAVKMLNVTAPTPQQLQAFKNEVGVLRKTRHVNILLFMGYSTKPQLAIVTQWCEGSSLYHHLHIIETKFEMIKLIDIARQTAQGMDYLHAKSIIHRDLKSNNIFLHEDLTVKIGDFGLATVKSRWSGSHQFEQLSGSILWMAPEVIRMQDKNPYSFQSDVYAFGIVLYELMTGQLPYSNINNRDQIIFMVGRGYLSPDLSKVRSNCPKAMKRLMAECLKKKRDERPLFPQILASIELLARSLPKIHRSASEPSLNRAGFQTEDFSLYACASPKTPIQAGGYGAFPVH
UniProt O96017, whole entry: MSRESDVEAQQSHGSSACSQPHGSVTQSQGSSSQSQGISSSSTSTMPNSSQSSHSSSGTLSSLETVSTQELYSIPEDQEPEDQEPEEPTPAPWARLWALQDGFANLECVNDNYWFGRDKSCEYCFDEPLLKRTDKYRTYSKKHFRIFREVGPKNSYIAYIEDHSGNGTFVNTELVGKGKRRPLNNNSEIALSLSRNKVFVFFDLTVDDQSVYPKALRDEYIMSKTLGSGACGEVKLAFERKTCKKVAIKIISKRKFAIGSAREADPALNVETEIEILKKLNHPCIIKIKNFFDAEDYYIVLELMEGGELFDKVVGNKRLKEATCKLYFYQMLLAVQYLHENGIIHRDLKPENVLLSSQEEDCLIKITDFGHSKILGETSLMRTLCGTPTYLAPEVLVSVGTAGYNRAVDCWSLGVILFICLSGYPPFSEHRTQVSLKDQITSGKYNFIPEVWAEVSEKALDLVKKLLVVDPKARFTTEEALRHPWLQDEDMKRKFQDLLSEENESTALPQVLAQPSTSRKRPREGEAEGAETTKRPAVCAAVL
UniProt P17948, whole entry: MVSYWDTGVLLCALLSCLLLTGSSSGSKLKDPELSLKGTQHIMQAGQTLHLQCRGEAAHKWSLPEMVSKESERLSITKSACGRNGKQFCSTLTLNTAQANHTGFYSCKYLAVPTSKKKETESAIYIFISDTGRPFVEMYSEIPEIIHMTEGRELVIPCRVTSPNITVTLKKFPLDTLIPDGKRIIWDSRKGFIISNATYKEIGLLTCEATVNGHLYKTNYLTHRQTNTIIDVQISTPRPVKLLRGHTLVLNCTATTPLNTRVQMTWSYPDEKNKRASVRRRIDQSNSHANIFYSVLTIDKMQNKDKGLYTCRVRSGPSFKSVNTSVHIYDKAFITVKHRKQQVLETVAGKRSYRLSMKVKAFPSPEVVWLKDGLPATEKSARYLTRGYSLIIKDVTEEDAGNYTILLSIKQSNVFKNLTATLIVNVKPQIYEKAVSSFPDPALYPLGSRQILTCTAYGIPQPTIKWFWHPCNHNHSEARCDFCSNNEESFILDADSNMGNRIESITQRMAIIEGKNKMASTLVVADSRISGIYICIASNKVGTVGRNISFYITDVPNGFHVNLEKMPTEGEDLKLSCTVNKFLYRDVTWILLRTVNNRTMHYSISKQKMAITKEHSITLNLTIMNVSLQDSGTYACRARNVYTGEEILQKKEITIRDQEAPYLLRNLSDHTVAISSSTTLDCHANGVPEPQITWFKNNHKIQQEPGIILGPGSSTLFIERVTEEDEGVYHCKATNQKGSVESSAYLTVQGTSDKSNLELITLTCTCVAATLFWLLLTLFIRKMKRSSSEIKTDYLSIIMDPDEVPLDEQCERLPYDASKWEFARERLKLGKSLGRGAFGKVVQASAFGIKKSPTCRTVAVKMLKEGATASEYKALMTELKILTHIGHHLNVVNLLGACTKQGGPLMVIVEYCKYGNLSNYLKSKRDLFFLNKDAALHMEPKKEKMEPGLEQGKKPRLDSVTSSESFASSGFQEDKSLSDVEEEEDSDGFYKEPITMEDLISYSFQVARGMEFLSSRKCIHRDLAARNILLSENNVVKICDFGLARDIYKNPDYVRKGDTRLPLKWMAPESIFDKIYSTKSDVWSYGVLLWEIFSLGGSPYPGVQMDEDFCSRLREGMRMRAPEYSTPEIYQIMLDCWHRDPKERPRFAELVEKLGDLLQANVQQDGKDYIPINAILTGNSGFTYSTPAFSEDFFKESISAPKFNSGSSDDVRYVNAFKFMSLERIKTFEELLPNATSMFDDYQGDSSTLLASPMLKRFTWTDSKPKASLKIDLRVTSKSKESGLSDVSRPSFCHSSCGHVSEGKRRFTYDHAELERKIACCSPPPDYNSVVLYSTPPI
UniProt P53667: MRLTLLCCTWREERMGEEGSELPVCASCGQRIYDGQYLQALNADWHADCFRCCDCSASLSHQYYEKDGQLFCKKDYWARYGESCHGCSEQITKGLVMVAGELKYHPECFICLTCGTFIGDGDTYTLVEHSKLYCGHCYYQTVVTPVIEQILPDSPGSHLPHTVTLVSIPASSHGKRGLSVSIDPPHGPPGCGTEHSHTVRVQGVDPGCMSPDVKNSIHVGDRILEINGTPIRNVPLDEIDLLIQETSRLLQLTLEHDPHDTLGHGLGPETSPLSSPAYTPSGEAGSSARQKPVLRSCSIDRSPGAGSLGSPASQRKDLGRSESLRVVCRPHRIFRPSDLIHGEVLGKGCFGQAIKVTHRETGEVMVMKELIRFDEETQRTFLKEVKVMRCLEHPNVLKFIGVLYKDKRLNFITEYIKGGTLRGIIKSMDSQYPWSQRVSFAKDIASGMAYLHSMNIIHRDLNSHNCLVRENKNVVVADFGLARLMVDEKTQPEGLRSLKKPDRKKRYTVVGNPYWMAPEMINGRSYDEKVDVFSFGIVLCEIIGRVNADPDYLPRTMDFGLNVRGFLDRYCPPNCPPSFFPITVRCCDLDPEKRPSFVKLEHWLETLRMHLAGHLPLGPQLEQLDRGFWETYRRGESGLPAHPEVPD
UniProt P11309, whole entry, looked up: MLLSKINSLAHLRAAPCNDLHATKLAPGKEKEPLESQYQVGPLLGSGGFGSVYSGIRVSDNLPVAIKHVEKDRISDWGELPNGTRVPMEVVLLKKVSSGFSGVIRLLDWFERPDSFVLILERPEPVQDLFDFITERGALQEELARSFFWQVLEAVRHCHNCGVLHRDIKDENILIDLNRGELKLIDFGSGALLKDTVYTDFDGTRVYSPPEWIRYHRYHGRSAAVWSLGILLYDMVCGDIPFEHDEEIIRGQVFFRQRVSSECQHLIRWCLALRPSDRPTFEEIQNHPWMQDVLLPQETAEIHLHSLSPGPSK
UniProt P07949, whole entry: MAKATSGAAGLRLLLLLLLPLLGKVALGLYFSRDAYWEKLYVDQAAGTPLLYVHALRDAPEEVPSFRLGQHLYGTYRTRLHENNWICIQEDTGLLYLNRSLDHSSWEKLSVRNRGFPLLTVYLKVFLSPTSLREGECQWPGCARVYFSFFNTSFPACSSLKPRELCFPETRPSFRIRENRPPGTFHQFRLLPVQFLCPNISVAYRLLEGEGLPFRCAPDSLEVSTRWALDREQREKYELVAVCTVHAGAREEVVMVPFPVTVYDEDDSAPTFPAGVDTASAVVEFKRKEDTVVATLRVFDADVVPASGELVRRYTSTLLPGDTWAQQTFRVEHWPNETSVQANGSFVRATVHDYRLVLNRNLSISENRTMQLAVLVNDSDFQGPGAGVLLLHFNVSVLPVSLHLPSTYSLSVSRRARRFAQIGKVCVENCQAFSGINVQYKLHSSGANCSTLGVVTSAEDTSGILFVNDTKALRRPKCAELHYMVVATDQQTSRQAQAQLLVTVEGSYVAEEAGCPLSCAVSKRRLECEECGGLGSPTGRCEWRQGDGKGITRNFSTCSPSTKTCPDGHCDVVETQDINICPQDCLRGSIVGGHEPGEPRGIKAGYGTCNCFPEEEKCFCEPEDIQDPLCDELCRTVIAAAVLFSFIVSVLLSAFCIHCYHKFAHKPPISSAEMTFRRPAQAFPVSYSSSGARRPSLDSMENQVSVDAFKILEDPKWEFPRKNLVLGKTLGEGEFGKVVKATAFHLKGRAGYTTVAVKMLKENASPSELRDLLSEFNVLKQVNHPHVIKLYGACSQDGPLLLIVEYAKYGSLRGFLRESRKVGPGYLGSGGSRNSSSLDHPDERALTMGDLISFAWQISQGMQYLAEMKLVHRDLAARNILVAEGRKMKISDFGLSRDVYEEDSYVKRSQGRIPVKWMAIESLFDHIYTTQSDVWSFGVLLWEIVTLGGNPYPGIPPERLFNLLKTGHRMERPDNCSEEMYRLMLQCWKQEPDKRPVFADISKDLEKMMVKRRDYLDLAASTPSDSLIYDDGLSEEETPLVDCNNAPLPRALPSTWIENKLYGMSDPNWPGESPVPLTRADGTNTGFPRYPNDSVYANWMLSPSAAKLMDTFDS
UniProt Q9UHD2: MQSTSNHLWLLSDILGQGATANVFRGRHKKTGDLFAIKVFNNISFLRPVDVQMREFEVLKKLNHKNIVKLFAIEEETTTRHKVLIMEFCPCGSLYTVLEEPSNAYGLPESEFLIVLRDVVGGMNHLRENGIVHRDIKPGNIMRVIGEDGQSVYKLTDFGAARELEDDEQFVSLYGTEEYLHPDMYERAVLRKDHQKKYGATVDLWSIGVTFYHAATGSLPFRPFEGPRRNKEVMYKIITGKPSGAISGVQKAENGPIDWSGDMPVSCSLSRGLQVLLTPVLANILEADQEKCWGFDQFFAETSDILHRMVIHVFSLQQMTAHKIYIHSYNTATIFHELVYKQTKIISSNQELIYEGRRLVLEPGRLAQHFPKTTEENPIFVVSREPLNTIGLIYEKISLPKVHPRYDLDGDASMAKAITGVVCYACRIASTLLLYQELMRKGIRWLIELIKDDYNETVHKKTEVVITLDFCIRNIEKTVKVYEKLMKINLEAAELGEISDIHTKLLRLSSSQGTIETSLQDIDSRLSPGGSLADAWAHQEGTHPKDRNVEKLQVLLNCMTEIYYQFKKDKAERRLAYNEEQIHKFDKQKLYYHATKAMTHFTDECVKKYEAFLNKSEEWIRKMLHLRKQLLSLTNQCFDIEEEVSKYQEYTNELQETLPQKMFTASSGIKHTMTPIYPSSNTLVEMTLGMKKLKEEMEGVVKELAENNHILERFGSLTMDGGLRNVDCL
UniProt P30291: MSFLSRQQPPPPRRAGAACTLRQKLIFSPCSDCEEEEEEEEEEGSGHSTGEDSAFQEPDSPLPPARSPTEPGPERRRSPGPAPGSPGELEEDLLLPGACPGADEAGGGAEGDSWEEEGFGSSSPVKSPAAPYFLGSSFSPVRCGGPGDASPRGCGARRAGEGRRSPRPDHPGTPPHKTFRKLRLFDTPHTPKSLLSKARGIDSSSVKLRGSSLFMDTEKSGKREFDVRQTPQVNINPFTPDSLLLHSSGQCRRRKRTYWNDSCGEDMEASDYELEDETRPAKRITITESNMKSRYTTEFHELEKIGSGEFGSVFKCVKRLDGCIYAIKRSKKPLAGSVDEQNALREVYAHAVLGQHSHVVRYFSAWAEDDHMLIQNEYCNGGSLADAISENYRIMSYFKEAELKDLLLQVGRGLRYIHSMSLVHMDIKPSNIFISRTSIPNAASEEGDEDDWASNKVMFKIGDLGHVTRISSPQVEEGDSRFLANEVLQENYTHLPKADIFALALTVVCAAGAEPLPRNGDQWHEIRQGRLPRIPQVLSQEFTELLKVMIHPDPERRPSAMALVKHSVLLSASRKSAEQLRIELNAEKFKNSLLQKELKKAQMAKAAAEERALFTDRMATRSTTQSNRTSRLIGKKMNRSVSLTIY

Activity [1]: 103%
Activity [2]: 84%
Activity [3]: 89%
Activity [4]: 93%
Activity [5]: 96%
Activity [6]: 105%
Activity [7]: 110%
Activity [8]: 122%
Activity [9]: 96%
Activity [10]: 109%
Activity [11]: 83%
Activity [12]: 91%
Activity [13]: 114%
Activity [14]: 85%
Activity [15]: 113%
Activity [16]: 107%
Activity [17]: 111%
Activity [18]: 95%
Activity [19]: 114%
Activity [20]: 97%
Activity [21]: 100%
Activity [22]: 107%
Activity [23]: 79%
Activity [24]: 103%
Activity [25]: 114%
Activity [26]: 92%
Activity [27]: 120%
Activity [28]: 102%
Activity [29]: 96%
Activity [30]: 96%
Activity [31]: 92%
Activity [32]: 91%
Activity [33]: 50%
Activity [34]: 98%
Activity [35]: 89%
Activity [36]: 102%
Activity [37]: 100%
Activity [38]: 108%
Activity [39]: 108%
Activity [40]: 97%
Activity [41]: 103%
Activity [42]: 100%
Activity [43]: 85%
Activity [44]: 62%
Activity [45]: 98%
Activity [46]: 87%
Activity [47]: 95%
Activity [48]: 102%
Activity [49]: 107%
Activity [50]: 109%
Activity [51]: 98%
Activity [52]: 103%
Activity [53]: 102%
Activity [54]: 86%
Activity [55]: 90%
Activity [56]: 86%
Activity [57]: 114%
Activity [58]: 109%
Activity [59]: 107%
Activity [60]: 92%
Activity [61]: 77%
Activity [62]: 102%
Compound: C[C@@H](Nc1c[nH]c(=O)c(C(=O)Nc2ccc(CN3CCN(C)CC3)cc2)c1)c1c(Cl)ccc(F)c1Cl
